According to PubChem BioAssay AID504708 (Sanford-Burnham Center for Chemical Genomics, 2011):
The entries are a selection whose mix differs from that of the whole data set. Active and inactive are the calls of the source.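 Rule for the calls: active = inhibition at or below a set negative limit, negative inhibition meaning the enzyme was activated; inactive = the rest.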

Protein sequences, listed by entry. Tags and fused reporters are not part of them. Lines headed by an entry give the natural chain unless they say otherwise; changes in a name come on top.
UniProt Q2TB90: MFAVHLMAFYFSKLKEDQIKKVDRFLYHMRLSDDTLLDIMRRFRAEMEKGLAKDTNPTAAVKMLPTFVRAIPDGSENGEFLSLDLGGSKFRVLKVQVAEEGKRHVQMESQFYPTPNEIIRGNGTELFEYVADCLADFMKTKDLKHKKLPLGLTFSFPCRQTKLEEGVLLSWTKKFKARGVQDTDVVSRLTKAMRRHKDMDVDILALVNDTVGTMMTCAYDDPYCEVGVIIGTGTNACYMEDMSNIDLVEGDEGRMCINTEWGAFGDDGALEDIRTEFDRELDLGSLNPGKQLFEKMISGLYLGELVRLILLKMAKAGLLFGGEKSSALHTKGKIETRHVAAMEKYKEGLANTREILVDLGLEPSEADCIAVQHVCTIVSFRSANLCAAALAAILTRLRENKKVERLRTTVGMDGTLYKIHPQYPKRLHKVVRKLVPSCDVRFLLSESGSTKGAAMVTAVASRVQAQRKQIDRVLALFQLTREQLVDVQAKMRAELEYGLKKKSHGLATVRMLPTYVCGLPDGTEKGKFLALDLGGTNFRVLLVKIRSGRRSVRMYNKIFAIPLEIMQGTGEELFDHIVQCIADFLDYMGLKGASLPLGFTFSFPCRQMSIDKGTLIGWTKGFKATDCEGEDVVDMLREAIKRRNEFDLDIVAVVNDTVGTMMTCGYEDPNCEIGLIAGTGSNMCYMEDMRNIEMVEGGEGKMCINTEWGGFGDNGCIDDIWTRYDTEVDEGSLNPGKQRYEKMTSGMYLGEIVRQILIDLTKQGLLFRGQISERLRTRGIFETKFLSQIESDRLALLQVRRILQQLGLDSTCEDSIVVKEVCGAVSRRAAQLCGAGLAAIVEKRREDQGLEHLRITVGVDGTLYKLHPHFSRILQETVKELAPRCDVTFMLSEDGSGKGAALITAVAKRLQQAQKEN

Target: Hexokinase HKDC1 (Homo sapiens) (UniProt Q2TB90)
Assay: HKDC1 hexokinase activators, confirmation, biochemical, single concentration (AID 504708)
Conditions: recombinant HKDC1, G6PDH/diaphorase resazurin fluorescence; at 20 µM; hits give low values

CN(C)C(=O)c1cc([N+](=O)[O-])cc2c1-c1c(cc([N+](=O)[O-])cc1[N+](=O)[O-])C2=O
inhibition: inactive: 56.7%
